## Apparent affinities of Ab-14 variants for a coronavirus HR2 peptide

Values reported by Engelhart et al. 2022, doi:10.1038/s41597-022-01779-4 (FLAb copy).

All variants were tested on one target, the spike HR2 peptide PDVDLGDISGINAS (SARS-CoV-2).

Parent: Ab-14, a human scFv built as VH, the linker GGGGSGGGGSGGGGS, VL. Only the CDRs of the heavy chain vary.
VH: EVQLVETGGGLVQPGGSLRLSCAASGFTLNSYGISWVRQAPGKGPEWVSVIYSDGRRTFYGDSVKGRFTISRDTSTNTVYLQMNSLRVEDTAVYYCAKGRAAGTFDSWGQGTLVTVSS
VL: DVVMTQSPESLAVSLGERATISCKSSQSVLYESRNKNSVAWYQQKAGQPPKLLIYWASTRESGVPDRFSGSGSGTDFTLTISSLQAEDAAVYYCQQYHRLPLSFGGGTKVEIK

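In library AAYL49, one, two or three CDR residues were substituted; doubles and triples were drawn at random. AlphaSeq pools MATa yeast showing the antibodies with MATalpha yeast showing the peptide. After mating in shaken culture at 30 °C for 16 h, diploids were selected and their barcode pairs sequenced. Scores were corrected for input abundance and mapped to Kd with protein pairs of known affinity run in the same pool. There are three technical replicates.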

Each variant's VH is given in full.
The read-out is the apparent dissociation constant on a log10 scale (nM): the lower, the stronger.
A mean of the replicates is given; it leaves out those without a signal.
"nd" marks a missing value. The strain was present, yet no cells mated with the target were sequenced in that replicate, which points to weak or no binding.

{"VH": "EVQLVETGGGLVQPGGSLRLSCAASGFTLNSYGIRWVRQAPGKGPEWVSVIYSDGRRTFYGDSVKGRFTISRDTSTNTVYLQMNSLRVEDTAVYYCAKGRYAGYFDSWGQGTLVTVSS", "replicates, log10 nM": "nd nd nd", "mean log10 Kd (nM)": "nd", "signal with controls": "2 of 9 (4.86)"}
{"VH": "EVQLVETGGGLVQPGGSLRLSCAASGFYLNSYGISWVRQAPGKGPEWVSVIYDDGRRTFYGDYVKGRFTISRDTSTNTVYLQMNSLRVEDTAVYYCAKGRAAGTFDSWGQGTLVTVSS", "replicates, log10 nM": "nd nd nd", "mean log10 Kd (nM)": "nd", "signal with controls": "6 of 9 (4.39)"}
{"VH": "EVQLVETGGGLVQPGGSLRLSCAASGFTLNSYGIRWVRQAPGKGPEWVSVIQSDGRRTFYGDSVKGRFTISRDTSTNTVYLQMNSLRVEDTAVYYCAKGRMAGTFDSWGQGTLVTVSS", "replicates, log10 nM": "nd nd nd", "mean log10 Kd (nM)": "nd", "signal with controls": "1 of 9 (3.05)"}
{"VH": "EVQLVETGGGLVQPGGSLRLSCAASGFTLNSYGISWVRQAPGKGPEWVSVIVSDGRRTFYGDSVQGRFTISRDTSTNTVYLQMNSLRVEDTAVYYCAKGRAAVTFDSWGQGTLVTVSS", "replicates, log10 nM": "nd nd nd", "mean log10 Kd (nM)": "nd", "signal with controls": "0 of 9"}
{"VH": "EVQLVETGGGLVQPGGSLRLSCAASTFTLNSYGISWVRQAPGKGPEWVSVIYSDGCRTFYGDSVKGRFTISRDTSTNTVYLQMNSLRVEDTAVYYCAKGWAAGTFDSWGQGTLVTVSS", "replicates, log10 nM": "nd nd nd", "mean log10 Kd (nM)": "nd", "signal with controls": "0 of 9"}
{"VH": "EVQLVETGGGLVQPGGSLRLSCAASGFTLMSYGISWVRQAPGKGPEWVSVIYSDQRRTFYGDSVKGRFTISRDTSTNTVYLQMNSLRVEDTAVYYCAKGRAAGTFDSWGQGTLVTVSS", "replicates, log10 nM": "6.00 4.01 nd", "mean log10 Kd (nM)": "5.01", "signal with controls": "7 of 9 (4.91)"}
{"VH": "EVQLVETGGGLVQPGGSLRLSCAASGFTLNSYGISWVRQAPGKGPEWVSVIYSDGRRTFYGIDVFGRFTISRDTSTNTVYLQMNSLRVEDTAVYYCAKGRAAGTFDSWGQGTLVTVSS", "replicates, log10 nM": "nd nd 4.10", "mean log10 Kd (nM)": "4.10", "signal with controls": "0 of 9"}
{"VH": "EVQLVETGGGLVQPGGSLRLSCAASGFTLWSYGISWVRQAPGKGPEWVSVEYSDGRCTFYGDSVKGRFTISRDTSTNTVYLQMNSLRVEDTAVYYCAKGRAAGTFDSWGQGTLVTVSS", "replicates, log10 nM": "nd nd nd", "mean log10 Kd (nM)": "nd", "signal with controls": "0 of 9"}
{"VH": "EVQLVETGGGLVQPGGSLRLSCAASGFTLNSYGISWVRQAPGKGPEWVSLIYSDGRRTFYGDSVKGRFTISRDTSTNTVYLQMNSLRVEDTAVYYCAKFLAAGTFDSWGQGTLVTVSS", "replicates, log10 nM": "4.48 nd 6.74", "mean log10 Kd (nM)": "5.61", "signal with controls": "6 of 9 (4.30)"}
{"VH": "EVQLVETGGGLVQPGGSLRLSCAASGFTLNSYGISWVRQAPGKGPEWVSVIYSDGSRTFYGDSVKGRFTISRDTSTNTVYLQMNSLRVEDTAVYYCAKGRAAGTFDFWGQGTLVTVSS", "replicates, log10 nM": "1.51 1.79 2.07", "mean log10 Kd (nM)": "1.79", "signal with controls": "0 of 9"}
{"VH": "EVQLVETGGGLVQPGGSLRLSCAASGFTLNSYGISWVRQAPGKGPEWVSVIYSDGWRTFYGDSVKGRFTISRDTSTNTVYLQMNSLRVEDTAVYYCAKGRAAHTFDSWGQGTLVTVSS", "replicates, log10 nM": "nd nd nd", "mean log10 Kd (nM)": "nd", "signal with controls": "0 of 9"}
{"VH": "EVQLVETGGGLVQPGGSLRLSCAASGFTFNSYGISWVRQAPGKGPEWVSVIGSDGRRTFYGDSVKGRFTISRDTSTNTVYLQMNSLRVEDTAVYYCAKGRAAGMFDSWGQGTLVTVSS", "replicates, log10 nM": "nd nd nd", "mean log10 Kd (nM)": "nd", "signal with controls": "0 of 9"}
{"VH": "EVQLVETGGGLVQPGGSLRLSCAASGFTLNSYGISWVRQAPGKGPEWVSVNYSDSRRTFYGDSVKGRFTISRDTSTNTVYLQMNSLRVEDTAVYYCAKGRAAGTFDSWGQGTLVTVSS", "replicates, log10 nM": "nd nd nd", "mean log10 Kd (nM)": "nd", "signal with controls": "1 of 9 (3.00)"}
{"VH": "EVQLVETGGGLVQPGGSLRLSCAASGFTLNSYGISWVRQAPGKGPEWVSVGYSDGRRTFYGDSVGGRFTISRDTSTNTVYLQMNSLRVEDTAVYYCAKGRAAGTFDPWGQGTLVTVSS", "replicates, log10 nM": "nd nd nd", "mean log10 Kd (nM)": "nd", "signal with controls": "0 of 9"}
{"VH": "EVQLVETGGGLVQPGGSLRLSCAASGFTLNSYGISWVRQAPGKGPEWVSVIYSDGRRTIYPDSVKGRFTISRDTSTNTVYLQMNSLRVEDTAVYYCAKGRPAGTFDSWGQGTLVTVSS", "replicates, log10 nM": "nd nd nd", "mean log10 Kd (nM)": "nd", "signal with controls": "0 of 9"}
{"VH": "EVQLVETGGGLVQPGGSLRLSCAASGFTLNSYKISWVRQAPGKGPEWVSVMYSDGRRTFYGWSVKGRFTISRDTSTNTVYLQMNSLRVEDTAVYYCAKGRAAGTFDSWGQGTLVTVSS", "replicates, log10 nM": "nd nd nd", "mean log10 Kd (nM)": "nd", "signal with controls": "2 of 9 (4.12)"}
{"VH": "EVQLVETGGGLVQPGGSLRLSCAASGFSLNSYGISWVRQAPGKGPEWVSVIYSDGRRTFYGDSMKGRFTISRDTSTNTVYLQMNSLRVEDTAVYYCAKGSAAGTFDSWGQGTLVTVSS", "replicates, log10 nM": "2.05 1.87 2.07", "mean log10 Kd (nM)": "2.00", "signal with controls": "2 of 9 (4.14)"}
{"VH": "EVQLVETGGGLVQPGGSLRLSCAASGFTTNSYLISWVRQAPGKGPEWVSVIWSDGRRTFYGDSVKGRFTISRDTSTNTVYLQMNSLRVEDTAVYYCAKGRAAGTFDSWGQGTLVTVSS", "replicates, log10 nM": "2.83 nd nd", "mean log10 Kd (nM)": "2.83", "signal with controls": "0 of 9"}
{"VH": "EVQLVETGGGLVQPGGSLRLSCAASGFTLNSYGISWVRQAPGKGPEWVSVAKSDGRRTFYGDSVAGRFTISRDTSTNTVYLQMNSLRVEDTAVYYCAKGRAAGTFDSWGQGTLVTVSS", "replicates, log10 nM": "5.73 nd 5.16", "mean log10 Kd (nM)": "5.44", "signal with controls": "2 of 9 (4.32)"}
{"VH": "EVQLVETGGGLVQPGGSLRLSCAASGFTLNSYGISWVRQAPGKGPEWVSVIYSDGRRTFYGDDVKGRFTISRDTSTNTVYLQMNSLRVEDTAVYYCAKGRAAGTFDSWGQGTLVTVSS", "replicates, log10 nM": "0.46 0.65 0.56", "mean log10 Kd (nM)": "0.56", "signal with controls": "1 of 9 (3.99)"}
{"VH": "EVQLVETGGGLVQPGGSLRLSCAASGFFLNSYGISWVRQAPGKGPEWVSVIYSDGRRTFYGDSVCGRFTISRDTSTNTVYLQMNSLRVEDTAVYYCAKGRAAGTFDSWGQGTLVTVSS", "replicates, log10 nM": "3.78 3.77 4.12", "mean log10 Kd (nM)": "3.89", "signal with controls": "4 of 9 (4.00)"}
{"VH": "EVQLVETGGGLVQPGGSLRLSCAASGFTLNSYGCSWVRQAPGKGPEWVSVIYDDGKRTFYGDSVKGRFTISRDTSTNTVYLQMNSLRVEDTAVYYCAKGRAAGTFDSWGQGTLVTVSS", "replicates, log10 nM": "5.30 nd nd", "mean log10 Kd (nM)": "5.30", "signal with controls": "4 of 9 (5.15)"}

The opening 2 entries, copied out:

VH	replicates, log10 nM	mean log10 Kd (nM)	signal with controls
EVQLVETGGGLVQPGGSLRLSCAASGFTLNSYGIRWVRQAPGKGPEWVSVIYSDGRRTFYGDSVKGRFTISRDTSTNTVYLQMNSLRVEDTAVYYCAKGRYAGYFDSWGQGTLVTVSS	nd nd nd	nd	2 of 9 (4.86)
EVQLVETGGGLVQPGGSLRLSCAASGFYLNSYGISWVRQAPGKGPEWVSVIYDDGRRTFYGDYVKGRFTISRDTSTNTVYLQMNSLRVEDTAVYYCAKGRAAGTFDSWGQGTLVTVSS	nd nd nd	nd	6 of 9 (4.39)

As a blank, each scFv also met three strains without target: over library AAYL49, 15% of these pairings were detected, typically at 4.06 and seldom below 2.83. The control count says in how many pairings with the empty strains this scFv gave a signal, with their mean in brackets.
Parent in this assay: reference entry 0.65, copy in this library 4.11 (one replicate of three).